# Measurements from US10828309B2, “Dermocosmetic or pharmaceutical use of a composition comprising at least one inhibitor of some chemoattractant cytokines” (GREENPHARMA, priority 2014, dated 2020).
# pKd: −log10 of the molar value. Read-outs that look alike come from different tables or passages of the source.
# Biological target: T1, CCL17 (Homo sapiens, UniProt Q92583)
# T1 sequence (Q92583 24-94): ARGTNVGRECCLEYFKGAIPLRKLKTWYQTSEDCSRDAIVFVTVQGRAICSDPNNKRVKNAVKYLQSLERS
# Experiment: Interaction affinity with CCL17 by fluorescence extinction of tryptophan residues
# Type: binding
# Settings: CCL17 1.5 μm, 20° C., biphasic titration curve
# Procedure: Briefly: the fluorescence measurements are carried out on a spectrofluorimeter Fluorolog 3 (JobinYvon/Spex) in a quartz cuvette. […] The measurements are carried out at 20° C. and the solutions are stirred using a magnetic stir bar. The recorded emission spectra are corrected by subtraction of the emission spectrum of the compound to be tested alone.
structure (smiles),measurement,setting,value
"CC(C)=CCn1cnc2c1c(=O)n(C)c(=O)n2C [GPN279, 3,7-dihydro-1,3-dimethyl-7-(3-methyl-2-butenyl)-1H-purin-2,6-dione]",pKd,read-out: KD for the site of high affinity,> 7.30
same,pKd,read-out: KD for the site(s) of low affinity,4.24
